Conditions: in vivo

C[N+]1(C)CCC(OC(=O)C(O)(c2ccccc2)C2CCCC2)C1.[Br-] (stereo not shown) [glycopyrrolate, 3-[(cyclopentylhydroxyphenylacetyl)oxy]-1,1-dimethylpyrrolidinium bromide]
kel LS Mean Group A fasted (both, human): 0.2636 h⁻¹ | kel LS Mean Group B fed (both, human): 0.2283 h⁻¹ | kel Ratio (A − B) (both, human): 1.154 | food effect on the pharmacokinetic parameters: appreciable
